Apparent affinities of Ab-14 variants for a coronavirus HR2 peptide

Antigen: PDVDLGDISGINAS, a 14-residue peptide of the SARS-CoV-2 spike HR2 region.

Each scFv is VH, the linker GGGGSGGGGSGGGGS, VL, as in the parent Ab-14, and differs from it in the CDRs of the heavy chain only.
VH: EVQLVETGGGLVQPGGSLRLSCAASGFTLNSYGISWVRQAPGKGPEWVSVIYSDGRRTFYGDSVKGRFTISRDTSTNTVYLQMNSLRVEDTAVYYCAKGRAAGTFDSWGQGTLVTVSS
VL: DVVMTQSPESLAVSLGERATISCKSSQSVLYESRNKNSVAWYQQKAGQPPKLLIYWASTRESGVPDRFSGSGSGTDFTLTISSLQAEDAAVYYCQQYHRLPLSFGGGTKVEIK

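The starting antibody came from a phage panning campaign against this peptide. This is the validation round: designs drawn from the data on random variants, tested in the same kind of assay. Group labels follow the data file (Ctrl: baseline library sampled from a position-specific scoring matrix, with some repeated check sequences; GP: Gaussian process model; GPLM: also part of the Gaussian process libraries; HC: hill climbing; Gen: genetic algorithm; a sequence that several methods proposed may carry one label only). AlphaSeq pools MATa yeast showing the antibodies with MATalpha yeast showing the peptide. Mating (16 h, 30 °C) was followed by selection of diploids and sequencing of their barcodes. Each replicate has its own calibration line, from reference interactions of the BCL2 family. The assay was run in six technical replicates.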

The parent's heavy chain CDRs are GFTLNSYGIS, VIYSDGRRTFYGDSVK, GRAAGTFDS; each variant's own CDRs replace them letter for letter. The read-out is the apparent dissociation constant on a log10 scale (nM): the lower, the stronger. The mean shown is taken over the replicates in which the pair was detected. A pair that was not seen in that replicate is written "n.d."; this usually means weak binding, but a binder can also be missed. The authors averaged sequences with at least three values out of six and counted those with two or fewer as poor binders.

CDR-H1	CDR-H2	CDR-H3	group	log10 Kd, replicates	mean, log10 nM	empty controls
GFTLEDYGIS	VIYSDGRRTFYGDAVK	GRVAGFFDS	Ctrl	n.d. n.d. n.d. n.d. 2.42 n.d.	2.42	1 of 18 (2.27)
GFTLNSYGIS	VIYSDGRRTFYGDSVK	GNLAGTFDS	Ctrl	1.12 0.65 1.00 0.90 1.69 0.97	1.06	0 of 18
GFEINSYGIS	VIYSDGRRLFYADSVK	HEAAGTFHS	Ctrl	n.d. n.d. n.d. n.d. n.d. n.d.	n.d.	0 of 18
GFTLNSYGIS	VIYADGRRTFYGDSVK	GRAKGTFDW	Ctrl	n.d. n.d. n.d. n.d. n.d. n.d.	n.d.	1 of 18 (2.29)
GFTLNTYGIS	VIYSDGRRTAYDDSVK	GRAAGDFDS	Ctrl	n.d. n.d. n.d. n.d. n.d. n.d.	n.d.	0 of 18
GFTLNNYGIS	VIYSDGRRTFYGDSVK	KRAGGTFES	Ctrl	n.d. n.d. n.d. n.d. n.d. n.d.	n.d.	0 of 18
GFTLNDYGIS	VIYSDGKRTFYQDSVK	GRAAGTFPS	Ctrl	n.d. n.d. n.d. n.d. n.d. n.d.	n.d.	0 of 18
GFSLREYGIS	VIYSDGRRTFYTDSVK	GRAAGTFLS	Ctrl	n.d. n.d. n.d. n.d. n.d. 2.47	2.47	0 of 18
GIELNSYGIS	VIYSDGRRTSYGDSVK	GKAAGTFDG	Ctrl	1.12 0.97 1.68 1.02 1.72 n.d.	1.30	1 of 18 (1.23)
GFTVNSYGIS	VIYSDGRRTFYGDKVV	GQAAGTFDS	Ctrl	n.d. n.d. n.d. n.d. n.d. n.d.	n.d.	0 of 18
GFMLDDYGIS	VIYSDGRRTFYGDSVK	GRMAGTFDL	Ctrl	0.64 0.64 0.48 0.45 0.60 0.65	0.58	0 of 18
GFSLNSYGIS	VIYSDGMRTFYGDSVK	GRAPGTFDS	Ctrl	1.90 2.03 2.31 n.d. 1.20 1.44	1.77	0 of 18
GFTLNSYGIS	VIYSDGRRTFYGDSVD	GTEAGTFDS	Ctrl	0.60 0.75 0.62 0.59 0.70 0.31	0.60	0 of 18
GFHLNSYGIS	VIYSDGRRTFYADSVK	GRAAGTFDS	Ctrl+GPLM_Gen	n.d. 2.78 n.d. 3.05 2.53 2.44; n.d. 0.96 1.23 1.61 0.56 2.62	1.98	1 of 36 (2.38)
GVTLNEYGIS	VIYSDGRRTFYGDSVK	GRAAGTFDE	Ctrl	n.d. n.d. n.d. n.d. n.d. n.d.	n.d.	0 of 18
GFTLNDYGIS	VIYSDGRRTFYGDSVK	GPEAGTFDS	Ctrl	n.d. n.d. n.d. n.d. n.d. n.d.	n.d.	0 of 18
GFTLNSYGIS	VIYSDGRRTFYGDDVA	GRAAGTFDW	Ctrl	n.d. n.d. n.d. n.d. n.d. 0.75	0.75	0 of 18
GFTLQSYGIS	VIYSDGRRTFYSDSVK	GGAAGTFDS	Ctrl	n.d. n.d. n.d. 3.53 n.d. n.d.	3.53	0 of 18
GFNLNSYGIS	VIYSDGRRTFYKDSVK	GRAAGTFPS	Ctrl	n.d. n.d. n.d. n.d. n.d. n.d.	n.d.	1 of 18 (0.84)
GDTLNSYGIS	VIYADGRRTFYGDSVK	GRNAGTFDS	Ctrl	-0.05 -0.09 0.68 0.07 1.29 1.17	0.51	0 of 18
GFHLNSYGIS	VIYSDGRRTFYGDSVK	NYAAGIFPS	Ctrl	n.d. n.d. n.d. n.d. n.d. n.d.	n.d.	0 of 18
GITLNQYGIS	VIYSDGRRTGYDDSVK	GRAAGTFDS	Ctrl	n.d. 1.18 n.d. 1.82 1.50 1.90	1.60	0 of 18
GFDLNMYGIS	VIYSDGRRKFYGDSVK	GRAAGTFDS	Ctrl	1.19 0.46 0.30 0.14 0.41 0.06	0.43	0 of 18
RANLNDYGIS	VIYSDGRRTFYSDSVK	GRAALTFDS	Ctrl	n.d. n.d. n.d. n.d. n.d. n.d.	n.d.	1 of 18 (2.13)
GFTINSYGYS	VIYSDGRRTFYHDSVK	GRAAGTFIS	Ctrl	n.d. n.d. n.d. n.d. n.d. n.d.	n.d.	0 of 18
GFTLNSYGIS	VIYSDGRRTFYGDSVK	EHAAGTFDS	Ctrl	n.d. 0.56 n.d. n.d. n.d. n.d.	0.56	0 of 18
GFTLNEYGIS	VIYSDGRRTFYIDAVK	GRAAGTFDS	Ctrl	n.d. n.d. n.d. 0.40 n.d. 1.01	0.70	0 of 18
GFTLDSYGIS	VIYSDGRRTAYGDSVK	GIAAGTFDS	Ctrl	0.98 0.36 0.78 0.38 0.38 0.95	0.64	0 of 18
GNNLNSYGIS	VIYSDGRRTFYGDSVK	GSAAGTFDS	Ctrl	2.28 n.d. 2.30 n.d. n.d. n.d.	2.29	1 of 18 (2.18)
GFTLESYGIS	VIYSDGRRTFYSDSVK	GNAAGTFDS	Ctrl	0.52 -0.40 n.d. 1.12 n.d. -0.17	0.26	0 of 18
GFDLNSYGIS	VIYSDGRRTFYGDSVK	GRAAGTFDQ	Ctrl+GP_HC	0.58 0.22 -0.09 0.52 0.66 0.27; 0.98 1.54 n.d. 2.12 0.62 1.15	0.78	0 of 36
GFTLNSYGIS	VIYSDGYRTFYGDSVK	GRARGTFDS	Ctrl	n.d. n.d. n.d. n.d. n.d. n.d.	n.d.	0 of 18
GFTLNDYGIS	VIYSDGRRTFYGDSVK	GWAAGTFDS	Ctrl	1.70 1.16 0.77 1.40 1.47 1.17	1.28	0 of 18
GFTLNSYGIS	VIYSDGRRTFYGDSVK	GRAQGTFDM	Ctrl	n.d. n.d. n.d. n.d. n.d. n.d.	n.d.	0 of 18
GFTINLYGIS	VIYSDGYRTFYGDSVK	GRAAKTFDS	Ctrl	n.d. n.d. n.d. n.d. n.d. n.d.	n.d.	1 of 18 (1.94)
GFTLNSYGIS	VIYSDGYRTFYGDSVK	GRAAGTFNH	Ctrl	n.d. n.d. n.d. n.d. n.d. n.d.	n.d.	0 of 18
GFTLNEYGIS	VIYSDGRRTFYTDSVK	GRATGTFDS	Ctrl	n.d. n.d. n.d. n.d. n.d. n.d.	n.d.	0 of 18
GFTLNEQGIS	VIYSDGRRTFYGDSVK	GRAAGTFDS	Ctrl	2.26 2.08 1.38 1.17 1.54 2.45	1.81	0 of 18
GFTLNSYGIS	VIYSDGRRTFYGDSVK	GDQMGTMPS	Ctrl	n.d. n.d. n.d. n.d. n.d. 3.23	3.23	1 of 18 (1.89)

Top 4 of the variants detected in all replicates, tightest first:

CDR-H1	CDR-H2	CDR-H3	group	log10 Kd, replicates	mean, log10 nM	empty controls
GFDLNMYGIS	VIYSDGRRKFYGDSVK	GRAAGTFDS	Ctrl	1.19 0.46 0.30 0.14 0.41 0.06	0.43	0 of 18
GDTLNSYGIS	VIYADGRRTFYGDSVK	GRNAGTFDS	Ctrl	-0.05 -0.09 0.68 0.07 1.29 1.17	0.51	0 of 18
GFMLDDYGIS	VIYSDGRRTFYGDSVK	GRMAGTFDL	Ctrl	0.64 0.64 0.48 0.45 0.60 0.65	0.58	0 of 18
GFTLNSYGIS	VIYSDGRRTFYGDSVD	GTEAGTFDS	Ctrl	0.60 0.75 0.62 0.59 0.70 0.31	0.60	0 of 18

Three control strains display no target. For all heavy chain designs, 1% of the pairings with them gave a signal, with a median of 2.08 and one signal in twenty below 0.84, so weak values seen in few replicates may be background. The control count says in how many pairings with the empty strains this scFv gave a signal, with their mean in brackets. Where one sequence has several entries in the source, the replicates are listed entry by entry, parted by semicolons. The parent sequence was in this pool as ten entries: three were never detected, three once, and four in most replicates, with averages from 0.34 to 2.37. Values of this round are not directly comparable with the first-round values of the same sequences.

Values reported by Li et al. 2023, doi:10.1038/s41467-023-39022-2 (FLAb copy).